The numbers were not newly measured in patent US20080275058A1, “N-Substituted-1H-Quinoline-2,4-Diones, Preparation Method Thereof, And Pharmaceutical Composition Containing The Same” (KOREA RESEARCH INSTITUTE OF CHEMICAL TECHNOLOGY, priority 2005, published 2008), which cites them from elsewhere.

Chains of the proteins cited; added tags and fusions are not shown.
UniProt P50406, whole entry: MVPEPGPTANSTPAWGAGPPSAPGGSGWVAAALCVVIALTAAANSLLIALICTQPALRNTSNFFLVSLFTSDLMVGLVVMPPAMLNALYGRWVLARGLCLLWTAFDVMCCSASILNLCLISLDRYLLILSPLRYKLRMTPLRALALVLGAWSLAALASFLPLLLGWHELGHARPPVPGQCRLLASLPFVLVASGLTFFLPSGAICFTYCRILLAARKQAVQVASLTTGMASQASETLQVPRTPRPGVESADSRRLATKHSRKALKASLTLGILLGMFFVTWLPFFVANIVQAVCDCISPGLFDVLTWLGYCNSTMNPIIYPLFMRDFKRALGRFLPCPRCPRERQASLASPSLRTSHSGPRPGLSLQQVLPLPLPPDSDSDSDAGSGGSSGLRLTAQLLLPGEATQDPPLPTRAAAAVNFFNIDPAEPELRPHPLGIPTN

A word on the Ki: it is the equilibrium dissociation constant of an inhibitor or competing ligand from its target.

Data set [1] has as its target T1, 5-HT6 receptors (Homo sapiens, UniProt P50406). As to conditions: read-out: Ki at 5-HT6 receptors; background literature; cited from earlier work.
Data set [2] deals with other 5-HT receptors and other receptor/binding sites. The conditions noted are these: background literature; cited from earlier work.
Data set [3] concerns the target T1, 5-HT6 receptors. The conditions noted are these: background literature; cited from earlier work.
The conditions of data set [4]: background literature; cited from earlier work.

In the case of `COc1ccc(NS(=O)(=O)c2ccc(Br)cc2)cc1N1CCN(C)CC1`, the Ki on 5-HT6 receptors [1] was 5 nM. Moreover, in data set [2], the “affinity for 50 other receptor/binding sites” value is “no measurable affinity” and the “selectivity over 10 other 5-HT receptors” value is over 50 fold. The “pKb, antagonist of cAMP accumulation” value at 5-HT6 receptors [3] is recorded as 7.8. Further, in data set [4], the brain penetrant is listed as 25%; the “clearance and bioavailability, in words” value is recorded as “rapid blood clearance resulting in low bioavailability”.
